Patent US20110081662A1, “SCREENING METHODS FOR BONE MORPHOGENETIC MIMETICS” (THRASOS THERAPEUTICS, INC., priority 2000, published 2011)

Molecular target: T1, daf-4 ECD (Caenorhabditis elegans, UniProt P50488)
T1 construct: 1 includes additional portions on the N and C terminus; made in house; host or cells: transfected DHFR(-) CHO cell line PJ511.9.8, purified from conditioned medium
T1 sequence (P50488 with tags, fused parts or gaps): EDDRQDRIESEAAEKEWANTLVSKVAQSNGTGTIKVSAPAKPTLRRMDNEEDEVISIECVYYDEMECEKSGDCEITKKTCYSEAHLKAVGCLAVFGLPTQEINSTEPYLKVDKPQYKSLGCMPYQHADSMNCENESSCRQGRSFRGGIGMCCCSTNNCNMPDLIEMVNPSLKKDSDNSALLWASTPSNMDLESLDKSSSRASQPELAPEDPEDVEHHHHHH
Test: BMP binding to purified daf-4 ECD (ligand blot, Scatchard analysis)
Set-up: species or system C. elegans
Procedure: Purification of daf-4 ECD: A purification protocol to process large volumes of conditioned media (3.5 L/week) was developed. The procedure involves initial isolation of daf-4 ECD by using Talon (Pharmacia Tech.) Immobilized metal affinity column. As daf-4 ECD protein is linked to a hexa-His sequence, the protein is bound to the metal affinity column and is subsequently eluted by imidazoic (120 nM) containing buffer. The pooled fractions from the metal affinity column were further purified by gel filtration chromatography on Sephacryl S-200 column to remove contaminating components of very high molecular weight. The active protein eluted from Sephacryl column was purified by reversed phase HPLC using C18 column with a linear gradient of 20% to 90% of acetonitrile and 0.075% TFA. An estimated yield of highly purified daf-4 ECD from each batch of 3.5 L conditioned medium is approximately 1.5 to 2 mg. The purified preparation was analyzed by reversed phase HPLC. […] A novel ligand-blot technique was developed to evaluate the binding of BMP-7 to the purified daf-4 ECD. Upon ligand blotting with ^125I-labeled BMP-7, the ligand effectively bound to daf-4 ECD and identified two closely migrated bands. daf-4 ECD is heavily glycosylated, and differences in the carbohydrate composition of its components may contribute to the observed molecular heterogeneity of the daf-4 ECD preparations. […]

BMP-2: bone morphogenetic protein
binding to extracellular domain of daf-4: readily binds
